Target: muscle-specific protein kinase (MuSK) (Homo sapiens, UniProt O15146)
Assay: PhosphoSens (Sox peptide, ChEF) fluorescence kinase assay, […] MuSK, […] ATP, […] h preincubation

Chains of the proteins cited; added tags and fusions are not shown. Residues count along the entry.
UniProt O15146, 575-856 limits assumed: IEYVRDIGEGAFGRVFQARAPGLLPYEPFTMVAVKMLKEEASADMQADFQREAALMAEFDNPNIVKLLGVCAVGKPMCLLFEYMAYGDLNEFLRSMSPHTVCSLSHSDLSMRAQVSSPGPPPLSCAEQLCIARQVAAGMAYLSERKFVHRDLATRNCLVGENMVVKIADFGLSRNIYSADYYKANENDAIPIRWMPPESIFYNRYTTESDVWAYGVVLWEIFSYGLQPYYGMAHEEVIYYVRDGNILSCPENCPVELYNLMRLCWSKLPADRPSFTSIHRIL

Q: Cn1cc(-c2ccc3c(c2)ncn3-c2ccc(CC(=O)Nc3cc(C(C)(C)C)on3)cc2)cn1 was tested. Which IC50 did it give?
A: 18.3 nM
